Results from patent US5888971A, “Macrocyclic peptides useful in the treatment of thrombin related disorders” (Ortho Pharmaceutical Corporation, Inc., priority 1996, dated 1999).

Protein sequences, listed by entry. Tags and fused reporters are not part of them. Residues count along the entry.
UniProt P00760, 24-246 limits assumed: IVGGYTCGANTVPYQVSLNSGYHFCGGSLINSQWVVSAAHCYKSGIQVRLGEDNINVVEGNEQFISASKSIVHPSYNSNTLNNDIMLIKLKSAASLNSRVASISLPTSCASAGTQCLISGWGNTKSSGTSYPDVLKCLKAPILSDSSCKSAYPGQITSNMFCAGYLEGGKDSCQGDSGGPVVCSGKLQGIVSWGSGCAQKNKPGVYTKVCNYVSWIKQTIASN

Experiments:
[1] = biological target: T1, human alpha-thrombin (Homo sapiens, UniProt P00734); experiment: Thrombin-catalyzed hydrolysis of chromogenic substrate, Michaelis-Menten Ki; format: biochemical; conditions: read-out: Thr Ki, 1 nM thrombin, 5-100 μM Spectozyme TH, 37° C., pH 7.4, Michaelis-Menten kinetics
[2] = biological target: Bovine type 1 trypsin (Bos taurus, UniProt P00760); experiment: Trypsin-catalyzed hydrolysis of chromogenic substrate, Ki; format: biochemical; conditions: read-out: Trp Ki, 3.2 U/ml trypsin, 0.1-0.3 mM Spectrozyme TRY
[3] = biological target: T1, human alpha-thrombin; experiment: Slow, tight-binding kinetics with thrombin (Ki-slow); conditions: read-out: Thr Ki -slow; 0.1 nM thrombin, 50 μM Spectozyme TH, 25° C., 4 h; tested form: TFA hydrate
[4] = tested form: di-TFA sesquihydrate

| Compound | Ki ([1]; tested form: TFA hydrate) [µM] | Ki ([2]; tested form: TFA hydrate) [µM] | also measured |
| --- | --- | --- | --- |
| N=C(N)NCCC[C@@H]1NC(=O)[C@@H]2CCCN2C(=O)CCCCCNC(=O)[C@H](CCC(=O)O)NC(=O)C1=O | 85.9 | 0.62 |  |
| N=C(N)NCCC[C@@H]1NC(=O)[C@@H]2CCCN2C(=O)[C@@H](Cc2ccccc2)NC(=O)CCCCCNC(=O)[C@@H](Cc2ccccc2)NC(=O)C1=O |  |  | Ki ([2]; tested form: TFA): 0.004 µM |
| N=C(N)NCCC[C@@H]1NC(=O)[C@@H]2CCCN2C(=O)[C@@H](c2ccccc2)NC(=O)CCCCCCCNC(=O)C1=O | 0.2 | 0.039 |  |
| N=C(N)NCCC[C@@H]1NC(=O)[C@@H]2CCCN2C(=O)CCCCCCCNC(=O)[C@@H](Cc2ccccc2)NC(=O)C1=O | 1.61 | 0.011 |  |
| N=C(N)NCCC[C@@H]1NC(=O)[C@@H]2CCCN2C(=O)[C@@H](CCc2ccccc2)NC(=O)CCCCCCCNC(=O)C1=O | 0.014 | 0.045 |  |
| N=C(N)NCCC[C@@H]1NC(=O)[C@@H]2CCCN2C(=O)CCCCCNC(=O)[C@@H](Cc2ccccc2)NC(=O)C1=O | 0.15 | 0.026 |  |
| N=C(N)NCCC[C@@H]1NC(=O)[C@@H]2CCCN2C(=O)[C@@H](Cc2ccccc2)NCCCCCCCCNC(=O)C1=O | 0.0023 | 0.0015 |  |
| N=C(N)NCCC[C@@H]1NC(=O)[C@@H]2CCCN2C(=O)[C@@H](Cc2ccccc2)NC(=O)CCCCCNC(=O)C1=O |  |  | Ki [1, 4]: 0.35 µM; Ki [2, 4]: 0.45 µM |
| N=C(N)NCCC[C@@H]1NC(=O)[C@@H]2CCCN2C(=O)[C@@H](C(c2ccccc2)c2ccccc2)NC(=O)CCCCCNC(=O)[C@@H](Cc2ccccc2)NC(=O)C1=O | 0.019 | 0.0053 | Ki [3]: 0.00136 µM |
| N=C(N)NCCC[C@@H]1NC(=O)[C@@H]2CCCN2C(=O)[C@@H](Cc2ccccc2)NC(=O)CCCCNCCNC(=O)C1=O | 0.018 | 0.0029 |  |
| CO[C@H]1C[C@H]2C(=O)N[C@@H](CCCNC(=N)N)C(=O)C(=O)NCCCCCCCC(=O)N[C@H](Cc3ccccc3)C(=O)N2C1 | 0.16 |  |  |
| N=C(N)NCCC[C@@H]1NC(=O)[C@@H]2CCCN2C(=O)[C@@H](Cc2ccccc2)NC(=O)CCCCCCCNC(=O)C1=O | 0.021 | 0.015 |  |
| N=C(N)NCCC[C@@H]1NC(=O)[C@@H]2CCCN2C(=O)[C@@H](Cc2ccccc2)NC(=O)CCCCCNC(=O)[C@H](Cc2ccccc2)NC(=O)C1=O |  | 0.017 |  |
| N=C(N)NCCC[C@@H]1NC(=O)[C@@H]2CCCN2C(=O)[C@@H](Cc2ccccc2)NC(=O)CCCCCCNC(=O)C1=O |  |  | Ki [3]: 0.492 µM |

Where two headings read alike, the source gives them in different places.
